The experiment relates to basophils (CD63 expression) in human whole blood. The experiment in a line: 384-well HTBS Whole Blood CD63 Basophil Assay. Type of experiment: cell-based. As to conditions: human whole blood (25% blood); comparison table. On the procedure:
Syk activity was assessed in relation to reduced activation of basophils as measured by the expression of CD63 in a human whole blood basophil cellular assay (25% blood). Basophil activation was measured in human whole blood using the Flow CAST kit (Buhlmann Laboratories AG, Baselstrasse, Switzerland) following the protocol provided by the manufacturer with minor modifications. Fresh human whole blood in heparin was collected and delivered same day (AllCells, Emeryville, Calif.). Whole blood samples were incubated with either DMSO (1% final) or serial diluted compounds in DMSO for 60 minutes at 37° C. Basophils were activated using the anti-FceRI mAb and stained with anti-CD63-FITC and anti-CCR3-PE for 20 minutes at 37° C. (per well: 50 μL of whole blood was mixed with 113 μL of stimulation buffer, 8.5 μL anti-FceRI mAb, 8.5 μL Ab stain CCR3-PE/CD63-FITC). Cells were centrifuged at 1000×g for 18 minutes and 150 μL/well of supernatant removed. […] Degranulation (basophil activation) was detected by CD63 surface expression on CCR3 positive cells. The percent CD63 positive cells within the gated basophil population were determined and normalized to the DMSO (negative control) and control compound (positive control).

Structures are written as SMILES.

Usually IC50 stands for the concentration that gives 50% inhibition. Low readings indicate inhibition by little substance, high ones a need for much substance.

`COc1ccc(Nc2nc(-c3ccc(N)nc3)cn3ccnc23)cc1OC` [6-(6-aminopyridin-3-yl)-N-(3,4-dimethoxyphenyl)imidazo[1,2-a]pyrazin-8-amine, reference compound] registered an IC50 of 734 nM.

These data come from patent publication US20160375019A1, “TREATMENT OF CHRONIC GRAFT VERSUS HOST DISEASE WITH SYK INHIBITORS” (Gilead Sciences, Inc., priority 2015, published 2016).
